## AlphaSeq binding of Ab-14 light chain variants to a spike HR2 peptide

Reference: Engelhart et al. 2022, doi:10.1038/s41597-022-01779-4. File: FLAb, binding data.

Target: peptide PDVDLGDISGINAS, taken from heptad repeat 2 (HR2) of SARS-CoV-2 spike.

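The parent was found by panning a naive human phage display library on the peptide. AAYL50 was designed without a model: most single CDR substitutions and a random sample of double and triple ones. In AlphaSeq, yeast of one mating type display the scFv and yeast of the other type display the target. Mating (16 h, 30 °C) was followed by selection of diploids and sequencing of their barcodes. Read counts were normalised to the haploid input and turned into Kd by a linear fit to BCL2-family pairs of known affinity, for each replicate. Mating was done three times.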

The variants keep the heavy chain, the linker and the frameworks of Ab-14 (scFv order VH, a (GGGGS)3 linker, VL).
VH: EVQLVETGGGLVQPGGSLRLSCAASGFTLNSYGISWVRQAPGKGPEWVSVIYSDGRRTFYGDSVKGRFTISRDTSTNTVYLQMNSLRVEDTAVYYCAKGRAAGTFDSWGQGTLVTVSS
VL: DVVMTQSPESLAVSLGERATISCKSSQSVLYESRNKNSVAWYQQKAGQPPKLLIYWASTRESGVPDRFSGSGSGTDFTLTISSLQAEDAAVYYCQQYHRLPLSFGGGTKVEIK

The parent's light chain CDRs are KSSQSVLYESRNKNSVA, WASTRES, QQYHRLPLS; each variant's own CDRs replace them letter for letter. Affinities are written as log10 Kd with Kd in nM; a lower number is a better binder. Replicates are averaged; those with no signal do not enter the mean. "nd" marks a missing value. The strain was present, yet no cells mated with the target were sequenced in that replicate, which points to weak or no binding. Empty control strains, which show no peptide, gave a signal in 18% of pairings with library AAYL50; the median was 4.19 and 95% of these signals were weaker than 2.99. No background was subtracted. For each scFv, signals with the empty controls are counted beside the result, with their mean in brackets. For reference, the parent read 0.65 as the reference entry and 1.68 as a member of this library.

{"CDR-L1": "KSSQGVLYEKRNKNSVA", "CDR-L2": "PASTRES", "CDR-L3": "QQYHRLPLS", "replicates, log10 nM": "nd / nd / nd", "mean log10 Kd (nM)": "nd", "empty controls": "2 of 9 (4.39)"}
{"CDR-L1": "KSSQSVLYCSRKKNSVA", "CDR-L2": "WASTRES", "CDR-L3": "QQYHRLPLQ", "replicates, log10 nM": "nd / nd / nd", "mean log10 Kd (nM)": "nd", "empty controls": "0 of 9"}
{"CDR-L1": "KSSQSVLYESQNKNSVA", "CDR-L2": "WASTRES", "CDR-L3": "QQYHRKNLS", "replicates, log10 nM": "1.33 / 1.33 / 1.37", "mean log10 Kd (nM)": "1.34", "empty controls": "4 of 9 (3.79)"}
{"CDR-L1": "KSSQSVLYESRGKNSVA", "CDR-L2": "VASTRES", "CDR-L3": "QDYHRLPLS", "replicates, log10 nM": "3.09 / nd / 4.34", "mean log10 Kd (nM)": "3.72", "empty controls": "1 of 9 (4.46)"}
{"CDR-L1": "KSFQAVLYESRNKNSVA", "CDR-L2": "WASTRES", "CDR-L3": "QHYHRLPLS", "replicates, log10 nM": "nd / nd / nd", "mean log10 Kd (nM)": "nd", "empty controls": "1 of 9 (4.20)"}
{"CDR-L1": "KSSQRVLYESRIKNSVA", "CDR-L2": "WASTRMS", "CDR-L3": "QQYHRLPLS", "replicates, log10 nM": "1.43 / 1.32 / 1.68", "mean log10 Kd (nM)": "1.48", "empty controls": "1 of 9 (3.74)"}
{"CDR-L1": "KSSRSVLYESYNKNSVA", "CDR-L2": "WASTRES", "CDR-L3": "QQYNRLPLS", "replicates, log10 nM": "0.18 / 0.56 / 0.36", "mean log10 Kd (nM)": "0.37", "empty controls": "1 of 9 (2.72)"}
{"CDR-L1": "KSIQSVLYESRNKNSVA", "CDR-L2": "WASTRSS", "CDR-L3": "QQYHRLMLS", "replicates, log10 nM": "1.35 / 1.52 / 1.73", "mean log10 Kd (nM)": "1.53", "empty controls": "3 of 9 (4.85)"}
{"CDR-L1": "HDSQSVLFESRNKNSVA", "CDR-L2": "WASTRES", "CDR-L3": "QQYHRLPLS", "replicates, log10 nM": "0.62 / 1.01 / 0.09", "mean log10 Kd (nM)": "0.58", "empty controls": "0 of 9"}
{"CDR-L1": "KSSQSVLKEQRNKNSVA", "CDR-L2": "WASTTES", "CDR-L3": "QQYHRLPLS", "replicates, log10 nM": "4.32 / 3.26 / 2.73", "mean log10 Kd (nM)": "3.44", "empty controls": "2 of 9 (4.54)"}
{"CDR-L1": "KSSQSVLYTSRNKNSVA", "CDR-L2": "WASYHES", "CDR-L3": "QQYHRLPLS", "replicates, log10 nM": "nd / nd / nd", "mean log10 Kd (nM)": "nd", "empty controls": "0 of 9"}
{"CDR-L1": "KSSQSVLYESRNKNYVA", "CDR-L2": "WASERES", "CDR-L3": "QQQHRLPLS", "replicates, log10 nM": "nd / nd / nd", "mean log10 Kd (nM)": "nd", "empty controls": "0 of 9"}
{"CDR-L1": "KSSQSPLYESRNKNSVA", "CDR-L2": "WASTRES", "CDR-L3": "QQYHRGPLS", "replicates, log10 nM": "0.67 / 1.02 / 1.09", "mean log10 Kd (nM)": "0.93", "empty controls": "4 of 9 (3.75)"}
{"CDR-L1": "KSSQSVLHESRNKNSVA", "CDR-L2": "WASTRES", "CDR-L3": "QQYHRWPLS", "replicates, log10 nM": "nd / nd / nd", "mean log10 Kd (nM)": "nd", "empty controls": "0 of 9"}
{"CDR-L1": "KSSQSRLYESRNKISVA", "CDR-L2": "WASTRES", "CDR-L3": "LQYHRLPLS", "replicates, log10 nM": "nd / nd / nd", "mean log10 Kd (nM)": "nd", "empty controls": "2 of 9 (4.36)"}
{"CDR-L1": "KSSQSVLYESRNKNSPA", "CDR-L2": "WASFRES", "CDR-L3": "QQNHRLPLS", "replicates, log10 nM": "nd / nd / nd", "mean log10 Kd (nM)": "nd", "empty controls": "0 of 9"}
{"CDR-L1": "KSSQSVLYESRYKNSVA", "CDR-L2": "WASTRES", "CDR-L3": "MQYHYLPLS", "replicates, log10 nM": "nd / 2.67 / nd", "mean log10 Kd (nM)": "2.67", "empty controls": "1 of 9 (4.62)"}
{"CDR-L1": "KSSQSVLYNSRNKNAVA", "CDR-L2": "WASTRES", "CDR-L3": "QEYHRLPLS", "replicates, log10 nM": "1.52 / 1.44 / 1.55", "mean log10 Kd (nM)": "1.50", "empty controls": "2 of 9 (4.95)"}
{"CDR-L1": "KFRQSVLYESRNKNSVA", "CDR-L2": "WASFRES", "CDR-L3": "QQYHRLPLS", "replicates, log10 nM": "1.39 / 1.50 / 1.95", "mean log10 Kd (nM)": "1.61", "empty controls": "0 of 9"}
{"CDR-L1": "KSSQSVLYESRNKNSVF", "CDR-L2": "KASTRES", "CDR-L3": "QQYHRLPLS", "replicates, log10 nM": "nd / nd / nd", "mean log10 Kd (nM)": "nd", "empty controls": "0 of 9"}
{"CDR-L1": "KSSQSVLYESRNKNSVV", "CDR-L2": "WASLRES", "CDR-L3": "QQDHRLPLS", "replicates, log10 nM": "nd / nd / nd", "mean log10 Kd (nM)": "nd", "empty controls": "1 of 9 (4.05)"}
{"CDR-L1": "KSSQSVLYESRNKNSVA", "CDR-L2": "MASARES", "CDR-L3": "QQVHRLPLS", "replicates, log10 nM": "nd / nd / nd", "mean log10 Kd (nM)": "nd", "empty controls": "3 of 9 (3.68)"}
{"CDR-L1": "KSSQQVLYESRNKNSVA", "CDR-L2": "WASRRES", "CDR-L3": "QQAHRLPLS", "replicates, log10 nM": "nd / nd / nd", "mean log10 Kd (nM)": "nd", "empty controls": "1 of 9 (4.38)"}
{"CDR-L1": "KSSQSVLYEMRNKNSVV", "CDR-L2": "WASTRES", "CDR-L3": "QQYHRLSLS", "replicates, log10 nM": "nd / nd / nd", "mean log10 Kd (nM)": "nd", "empty controls": "0 of 9"}
{"CDR-L1": "KSAQSVLYESRNKNSVA", "CDR-L2": "WASTMES", "CDR-L3": "QQYHRLPLS", "replicates, log10 nM": "nd / 4.06 / nd", "mean log10 Kd (nM)": "4.06", "empty controls": "0 of 9"}
{"CDR-L1": "QSSTSVLYESRNKNSCA", "CDR-L2": "WASTRES", "CDR-L3": "QQYHRLPLS", "replicates, log10 nM": "nd / nd / nd", "mean log10 Kd (nM)": "nd", "empty controls": "0 of 9"}
{"CDR-L1": "KSSQSVLYESRNKNSVI", "CDR-L2": "WASTRES", "CDR-L3": "QQYHRLPLS", "replicates, log10 nM": "nd / nd / nd", "mean log10 Kd (nM)": "nd", "empty controls": "0 of 9"}
{"CDR-L1": "KSVQSVLYESRNKNEVA", "CDR-L2": "WASWRES", "CDR-L3": "QQYHRLPLS", "replicates, log10 nM": "3.77 / nd / 4.99", "mean log10 Kd (nM)": "4.38", "empty controls": "5 of 9 (3.99)"}
{"CDR-L1": "KSSQSRLYESRNKNSVA", "CDR-L2": "LASTFES", "CDR-L3": "QQYHRLPLS", "replicates, log10 nM": "nd / nd / 2.92", "mean log10 Kd (nM)": "2.92", "empty controls": "1 of 9 (4.03)"}
{"CDR-L1": "KSSYSVWYESRNKNSVA", "CDR-L2": "WASTRES", "CDR-L3": "QQYHRLPFS", "replicates, log10 nM": "0.36 / 0.70 / 0.42", "mean log10 Kd (nM)": "0.49", "empty controls": "1 of 9 (3.91)"}
{"CDR-L1": "KSSQSVLYESRNKNHVA", "CDR-L2": "WASTRES", "CDR-L3": "QQYHRLPLS", "replicates, log10 nM": "2.42 / 3.43 / 3.35", "mean log10 Kd (nM)": "3.06", "empty controls": "0 of 9"}

For reference, 4 entries of the list once more:

CDR-L1	CDR-L2	CDR-L3	replicates, log10 nM	mean log10 Kd (nM)	empty controls
KFRQSVLYESRNKNSVA	WASFRES	QQYHRLPLS	1.39 / 1.50 / 1.95	1.61	0 of 9
KSSQSRLYESRNKNSVA	LASTFES	QQYHRLPLS	nd / nd / 2.92	2.92	1 of 9 (4.03)
KSFQAVLYESRNKNSVA	WASTRES	QHYHRLPLS	nd / nd / nd	nd	1 of 9 (4.20)
KSSQQVLYESRNKNSVA	WASRRES	QQAHRLPLS	nd / nd / nd	nd	1 of 9 (4.38)